Laboratory results published in patent publication US20250059174A1, “Pharmaceutical Compounds and Compositions as C-Kit Kinase Inhibitors” (Enanta Pharmaceuticals, Inc., priority 2023, published 2025).

By UniProt entry, the sequences of proteins in these tests, tags left out. Residues count along the entry.
UniProt P10721, 26-976 limits assumed: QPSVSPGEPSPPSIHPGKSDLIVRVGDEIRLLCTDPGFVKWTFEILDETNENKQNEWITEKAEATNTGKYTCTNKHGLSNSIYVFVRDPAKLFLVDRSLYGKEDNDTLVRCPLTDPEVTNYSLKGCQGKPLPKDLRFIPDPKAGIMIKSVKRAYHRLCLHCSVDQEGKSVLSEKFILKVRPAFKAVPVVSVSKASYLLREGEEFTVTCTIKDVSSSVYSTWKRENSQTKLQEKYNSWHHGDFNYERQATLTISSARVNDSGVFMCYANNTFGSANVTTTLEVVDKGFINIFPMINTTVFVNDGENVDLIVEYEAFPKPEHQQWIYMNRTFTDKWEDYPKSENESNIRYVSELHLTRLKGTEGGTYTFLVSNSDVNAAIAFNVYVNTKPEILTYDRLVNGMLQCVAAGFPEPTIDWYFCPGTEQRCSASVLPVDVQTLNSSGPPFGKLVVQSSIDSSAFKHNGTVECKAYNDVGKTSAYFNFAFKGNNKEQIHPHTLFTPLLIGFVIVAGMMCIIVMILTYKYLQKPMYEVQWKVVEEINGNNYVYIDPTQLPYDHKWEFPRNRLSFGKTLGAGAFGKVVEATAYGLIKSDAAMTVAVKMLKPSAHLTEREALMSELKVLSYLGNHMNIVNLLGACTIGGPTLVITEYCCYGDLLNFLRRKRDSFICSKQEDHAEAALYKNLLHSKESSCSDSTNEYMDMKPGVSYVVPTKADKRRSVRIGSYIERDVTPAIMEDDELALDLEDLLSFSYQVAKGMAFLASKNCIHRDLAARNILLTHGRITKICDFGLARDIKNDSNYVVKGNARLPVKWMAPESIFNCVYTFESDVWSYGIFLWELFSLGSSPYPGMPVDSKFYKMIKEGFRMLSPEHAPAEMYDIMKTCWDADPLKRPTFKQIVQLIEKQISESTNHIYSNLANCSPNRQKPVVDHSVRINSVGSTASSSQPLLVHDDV

What was measured:
M-07e cells = experiment: M-07e cellular assay (SCF-mediated cell proliferation); conditions: read-out: M-07e EC50, 72 hours, CellTiter Glo
[1] = target: Recombinant human c-KIT kinase (Homo sapiens (Human), UniProt P10721); experiment: c-KIT kinase chemiluminescence assay (ADP-Glo); type: biochemical; conditions: read-out: c-Kit IC50, ATP 50 μM

| IC50 [1] | Structure (SMILES) | EC50 (M-07e cells) |
| --- | --- | --- |
| < 0.1 µM | Cc1ccc(-c2nc([C@H]3C[C@@H]3F)co2)cc1NC(=O)c1cnn2ccc(N3CC4(COC4)C3)cc12 | < 100 nM |
| < 0.1 µM | Cc1ccc(-c2nc([C@H]3C[C@@H]3F)c[nH]2)cc1NC(=O)c1cnn2ccc(N3CC4(COC4)C3)cc12 | < 100 nM |
| – | O=C(Nc1cc(-c2noc([C@H]3C[C@@H](OC(F)F)C3)n2)ccc1Cl)c1cnn2ccc(N3CC4(C3)CC(O)(C(F)(F)F)C4)cc12 | 100 to 1000 nM |
